The species entered for assay [1] is Homo sapiens. Put plainly: Selectivity ratio of IC50 for human CDK1-cyclin B to IC50 for human CDK4-cyclin D.
Assay [2] is filed under the species Homo sapiens. Put plainly: Selectivity ratio of IC50 for human CDK2-cyclin E to IC50 for human CDK4-cyclin D.

Where only a bound is given, the exact number is not on record here.

Regarding `CN1CCN(c2ccc(Nc3nc(N)c(C(=O)c4ccc5c(c4)OCCO5)s3)cc2)CC1`, the Ratio IC50 in the assay listed under Homo sapiens [1] and in the assay filed under Homo sapiens [2] was more than 100 in each case.

(Values after ChEMBL document CHEMBL1955770, “Inhibition of S/G2 phase CDK4 reduces mitotic fidelity” (J Biol Chem, 2006).)
